Reference: US20150010617A1
Like-named read-outs stand apart in the source and are kept apart here.

How the values were obtained:
Experiment in all cases: cell-based or functional assay
[1] = molecular target: plant-expressed recombinant human DNase I (human) (UniProt P24855)
[2] = molecular target: Pulmozyme® (dornase alfa), mammalian (CHO) cell expressed recombinant human DNase I (human) (UniProt P24855)
[3] = molecular target: plant-expressed recombinant human DNase I (human) (UniProt P24855); remark: listed apart in the source
[4] = molecular target: Pulmozyme® (dornase alfa), mammalian (CHO) cell expressed recombinant human DNase I (human) (UniProt P24855); remark: listed apart in the source

Question: Which IC50 (µg/ml) of actin for inhibition of DNase I catalytic activity, DNA-methyl green assay; Prh DNase I batch 1 [1] does the source give for “human non-muscle actin (Cytoskeleton; cat No. APHL99) (from UniProt P60709 2-375)” here?
Answer: The IC50 (µg/ml) of actin for inhibition of DNase I catalytic activity, DNA-methyl green assay; Prh DNase I batch 1 was 1.71 µg/mL.

Question: What about the IC50 (µg/ml) of actin for inhibition of DNase I catalytic activity, DNA-methyl green assay; Prh DNase I batch 2 [1] of the same substance?
Answer: Its IC50 (µg/ml) of actin for inhibition of DNase I catalytic activity, DNA-methyl green assay; Prh DNase I batch 2 is 1.85 µg/mL.

Question: And the IC50 (µg/ml) of actin for inhibition of DNase I catalytic activity, DNA-methyl green assay [2]?
Answer: The IC50 (µg/ml) of actin for inhibition of DNase I catalytic activity, DNA-methyl green assay was 0.546 µg/mL.

Question: And the IC50 (µg/ml) of actin for inhibition of DNase I catalytic activity, DNA-methyl green assay [3]?
Answer: The IC50 (µg/ml) of actin for inhibition of DNase I catalytic activity, DNA-methyl green assay was 1.82 µg/mL.

Question: What about the IC50 (µg/ml) of actin for inhibition of DNase I catalytic activity, DNA-methyl green assay [4] of the same substance?
Answer: The IC50 (µg/ml) of actin for inhibition of DNase I catalytic activity, DNA-methyl green assay was 0.687 µg/mL.
